# Values quoted from earlier work in article PMC7007292 (Oncotarget, 2020).
# System: GC patients
# Details: added to standard chemotherapy vs chemotherapy alone; cited from earlier work
substance,measurement,value
trastuzumab: recombinant humanized monoclonal antibody against ERBB2/Her2,median OS,improved median OS
